Screening results: PubChem, National Center for Advancing Translational Sciences (NCATS)
Most compounds without a hit are left out; they make up all but 2.3% or so of the library.
miR-21 reporter: miR-21 reporter, rising signal; HeLa miR-21 FLuc reporter, luciferase, 48 h; Potency, µM (titrated, usually from 38.3 µM), without a hit: top-dose reporter change, positive = more light; AID 2288; 340,000 tested, under 10 active; active = well fitted rising curve with a large enough effect; inconclusive = small, poorly fitted or top-dose-only effect; inactive = no such curve, though single readings can be large or run the other way;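 further: % of control where 0% means no effect; miR-21 action dims this reporter so a rising signal means less miR-21 action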
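Using DMEM plus 10% FBS, HeLa miR-21-FLuc cells are incubated with test compounds (final up to about 40uM) for 48 hours; firefly luciferase signal is then imaged following reagent-mediated lysis.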
Nrf2 activator: activates Nrf2 signaling. AREc32 ARE-luciferase reporter (MCF7-derived line), luminescence, 24 h. Potency, µM (highest dose often 46.1 µM), for inactives: top-dose activation, usual class: activators. hit rate 0.31% among 410,000. AID 624171; note: potency is the fitted concentration of half-maximal effect; % of control where 0% means no effect; nearly all actives have a fitted effect of over 65% in size
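AREc32 cells carrying an ARE-driven firefly luciferase, 1000 cells/well in OPTI-MEM with 5% FBS, dosed after overnight attachment and incubated 24 hr at 37 deg C. Steady-Glo luminescence read after 30 min at RT.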
Nrf2 inh: blocks Nrf2 signaling. AID 504444. Potency, µM (titrated, usually from 46 µM), for inactives: at the highest dose activity change, negative = inhibition, usual class: inhibitors. hit rate 2.1% among 360,000. A549 ARE-Fluc reporter, luciferase luminescence, 18-24 h; note: potency is the fitted concentration of half-maximal effect; % is set by controls: 0 for no effect and ±100 for the full control effect; nearly all actives have a fitted effect of over 60% in size
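Nrf2 activity is the BugLite luminescence, read 15 min after reagent at room temperature, following CellTiter-Fluor cytotoxicity readout (30 min, 37C). Compound titrations were applied for 18-24 h to 5000 A549 ARE_Fluc cells/well in 5% FBS OPTI-MEM.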
Mito fusion yeast: blocks mitochondrial division or promotes mitochondrial fusion | S. cerevisiae fusion-defective mutant growth rescue, CellTiterGlo 48 h | Potency, µM (top dose mostly 46.1 µM), for inactives: at the top dose growth rescue (activation), usual class: activators | hit rate 0.23% among 320,000; note: potency is the fitted concentration of half-maximal effect; % of control where 0% means no effect; nearly all actives have a fitted effect of over 45% in size
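Read-out: ATP-based luminescence (CellTiterGlo, 10 min ambient) reporting growth of fusion-defective ts yeast after 48 hours at 37C on glycerol/ethanol YPEG medium in the presence of compound.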
A549 viability: A549 cytotoxicity, counter-screen for Nrf2 inhibitors; Potency, µM (highest dose often 46 µM), inactives show at the top dose activity change, negative = cytotoxicity, hits mostly inhibitors; hit rate 0.16% among 390,000; A549 ARE-Fluc cells, CellTiter-Fluor viability, 18-24 h; note: potency is the fitted concentration of half-maximal effect; % is set by controls: 0 for no effect and ±100 for the full control effect
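Cytotoxicity counterscreen: CellTiter-Fluor fluorescence was measured in A549 ARE_Fluc cells after 18-24 h of compound exposure in a concentration series. The subsequent BugLite luminescent read reports ARE-luciferase activity.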
* = called active by the depositor; [ ] = dose if it differs, or a comment. Calls come from the whole dose curve; as a rule, active = well fitted curve in the direction sought with a large enough effect; inconclusive = small, poorly fitted or top-dose-only effect, or another doubt; inactive = no such curve, though single readings can be large; an effect the other way counts as inactive or inconclusive.

`CN1C(=O)Cc2cc([S+](=O)([O-])N3CCN([S+](=O)([O-])c4c(F)cccc4F)CC3)ccc21` gave Nrf2 inh 15% and A549 viability -8%.
CN1Cc2sccc2C(c2ccc(O)c(O)c2)C1 (stereo not drawn) was read as Mito fusion yeast -7%.
CCCCCCc1nc2ccccc2c(=O)n1NC(=O)c1c(O)c2c(n(CC(C)C)c1=O)CCCC2 was read as miR-21 reporter -5%, Nrf2 activator 0%, Nrf2 inh 21µM*, Mito fusion yeast -1% and A549 viability inconclusive.
CCn1c(=O)c(C(=O)NNS(=O)(=O)c2ccc(C)cc2)c(O)c2ccccc21 was read as miR-21 reporter -4%, Nrf2 activator 3%, Nrf2 inh 15µM*, Mito fusion yeast 9% and A549 viability -28%.
CCCc1nc2ccccc2c(=O)n1NC(=O)c1c(O)c2ccccc2n(C)c1=O was read as miR-21 reporter -4%, Nrf2 activator 0%, Nrf2 inh 18µM*, Mito fusion yeast 10% and A549 viability -22%.
CCCn1c(=O)c(C(=O)NNS(=O)(=O)c2ccc(C)cc2)c(O)c2ccccc21 was read as miR-21 reporter -7%, Nrf2 activator 0%, Nrf2 inh inconclusive, Mito fusion yeast 16% and A549 viability -8%.
`COc1ccccc1NC(=O)CN(C)S(=O)(=O)c1ccc2c(c1)c(=O)n(C)c(=O)n2C` gave miR-21 reporter 0%, Nrf2 activator 0%, Nrf2 inh 16% and A549 viability 2%.
Screening C#CCSc1nc2ccccc2c(=O)n1CC=C returned Nrf2 inh -9% and A549 viability 6%.
Screening COC(=O)c1c(C)[nH]c(C=O)c1-c1ccccc1 returned miR-21 reporter -62%, Nrf2 activator 4%, Nrf2 inh inconclusive, Mito fusion yeast 10% and A549 viability 1%.
Screening COC(=O)c1c(C)[nH]c(C)c1C(=O)c1ccccc1Cc1ccccc1 returned Nrf2 activator 3%, Nrf2 inh -21%, Mito fusion yeast 2.9µM* and A549 viability -3%.
Cc1ccc2cc3c(NC(=O)c4ccco4)nn(C)c3nc2c1 was read as miR-21 reporter 12%, Nrf2 activator 3.2µM*, Nrf2 inh inconclusive, Mito fusion yeast 2% and A549 viability 2%.
`CC(=O)Nc1nn(C)c2nc3cc(C)ccc3cc12` gave miR-21 reporter -7%, Nrf2 activator 0%, Nrf2 inh 4%, Mito fusion yeast 2% and A549 viability -3%.
`CC(=O)c1cc(C(=O)Nc2cccc(C)c2)c2ccccn12` gave miR-21 reporter -17%, Nrf2 activator inconclusive, Nrf2 inh 4% and A549 viability 6%.
Screening Cc1ccc(Cl)cc1N1CCN(Cc2nnc(-c3ccc4c(c3)OCO4)o2)CC1 returned miR-21 reporter 3%, Nrf2 activator 0%, Nrf2 inh 21µM* and A549 viability -11%.
`CCN(CC)C(=O)CSc1nnc2nnc3cc(OC)ccc3n12` gave miR-21 reporter 5%, Nrf2 activator 4%, Nrf2 inh 18µM*, Mito fusion yeast 3% and A549 viability inconclusive.
`CC1=C(C(=O)OC2CCCCCCC2)C(c2cc3c(cc2Br)OCO3)CC(=O)N1` (stereo not drawn) gave miR-21 reporter -1%, Nrf2 activator 0%, Nrf2 inh 21µM*, Mito fusion yeast -3% and A549 viability inconclusive.
For COC(=O)C1=C(C)NC(=O)CC1c1cc2c(cc1Br)OCO2 (stereo not drawn) the results were miR-21 reporter -5%, Nrf2 activator 2%, Nrf2 inh -1%, Mito fusion yeast 2% and A549 viability 1%.
Screening CC(=O)c1ccc(NC(=O)c2sc(-n3nc(C)c(Cc4ccc5c(c4)OCO5)c3C)nc2C)cc1 returned miR-21 reporter -11%, Nrf2 activator -1%, Nrf2 inh 12% and A549 viability 9%.
`NS(=O)(=O)c1ccc(CCNC(=O)c2ccc([N+](=O)[O-])s2)cc1` gave miR-21 reporter 13%, Nrf2 activator 4%, Nrf2 inh 9.2µM*, Mito fusion yeast -1% and A549 viability inconclusive.
NS(=O)(=O)c1ccc(CCNC(=O)c2ccc(Cl)s2)cc1 was read as miR-21 reporter -5%, Nrf2 activator 0%, Nrf2 inh -45%, Mito fusion yeast -1% and A549 viability 0%.
CCOC(=O)CSc1c(-c2ccc(Cl)cc2)[nH]c2ccccc12 was read as miR-21 reporter -2%, Nrf2 activator 11%, Nrf2 inh 9%, Mito fusion yeast inconclusive and A549 viability -4%.
`CCOC(=O)CSc1c(-c2cccs2)[nH]c2ccccc12` gave miR-21 reporter 5%, Nrf2 activator 3%, Nrf2 inh 2%, Mito fusion yeast 14µM* and A549 viability -4%.
For Cc1cc(C)c2oc(C(=O)Nc3sc4c(c3C(=O)NCc3ccco3)CCC4)cc(=O)c2c1 the results were miR-21 reporter -1%, Nrf2 activator -1%, Nrf2 inh 8% and A549 viability 0%.
`Cc1cccc(N2CCN(C(c3cccs3)c3nnnn3C(C)(C)C)CC2)c1C` (stereo not drawn) gave miR-21 reporter 1%, Nrf2 activator 0%, Nrf2 inh -5%, Mito fusion yeast 13% and A549 viability 6%.
For CC(C)(C)n1nnnc1C(c1cccs1)N1CCN(c2ccccc2)CC1 (stereo not drawn) the results were miR-21 reporter -1%, Nrf2 activator 0%, Nrf2 inh 23µM*, Mito fusion yeast inconclusive and A549 viability inconclusive.
COc1ccc(N2CCN(C(c3cccs3)c3nnnn3C3CCCC3)CC2)cc1 (stereo not drawn) was read as miR-21 reporter -4%, Nrf2 activator 0%, Nrf2 inh -9%, Mito fusion yeast 11µM* and A549 viability -14%.
Screening FC(F)(F)c1cc(C(F)(F)F)c2ccc(N3CCN(c4ccc(Cl)cc4)CC3)nc2n1 returned miR-21 reporter -2%, Nrf2 activator 0%, Nrf2 inh -7%, Mito fusion yeast 1% and A549 viability 1%.
Screening N#CC(c1ccc(Cl)cc1)c1ccc2c(C(F)(F)F)cc(C(F)(F)F)nc2n1 (stereo not drawn) returned miR-21 reporter inconclusive, Nrf2 activator 17%, Nrf2 inh 1.5µM*, Mito fusion yeast 3% and A549 viability 5.8µM*.
Screening O=C(NCCc1ccccc1)c1ccc2c(c1)N(Cc1ccc(Cl)cc1)C(=O)CS2 returned miR-21 reporter inconclusive, Nrf2 activator 4%, Nrf2 inh 14%[9.27 µM] and A549 viability -10%.
`Oc1ccc(Br)cc1C1C=C(c2ccc3c(c2)OCO3)NC(c2ccc(Br)cc2)N1` (stereo not drawn) gave Nrf2 inh 6% and A549 viability 0%.

Molecules from the list above with an aryl thioether with sulfur outside any ring:
Screening C#CCSc1nc2ccccc2c(=O)n1CC=C returned Nrf2 inh -9% and A549 viability 6%.
`CCN(CC)C(=O)CSc1nnc2nnc3cc(OC)ccc3n12` gave miR-21 reporter 5%, Nrf2 activator 4%, Nrf2 inh 18µM*, Mito fusion yeast 3% and A549 viability inconclusive.
CCOC(=O)CSc1c(-c2ccc(Cl)cc2)[nH]c2ccccc12 was read as miR-21 reporter -2%, Nrf2 activator 11%, Nrf2 inh 9%, Mito fusion yeast inconclusive and A549 viability -4%.
`CCOC(=O)CSc1c(-c2cccs2)[nH]c2ccccc12` gave miR-21 reporter 5%, Nrf2 activator 3%, Nrf2 inh 2%, Mito fusion yeast 14µM* and A549 viability -4%.
